Laboratory results as given in US6858227B1, “Vitamin E conjugates” (Sonus Pharmaceuticals, Inc., priority 2001, dated 2005).

Test: Surface tension of 0.1 weight percent aqueous solution
Assay type: physicochemical
Details: 0.1 weight percent solution in water
Description: The conjugate is highly soluble (100 mg/ml) in water, dichloromethane, methanol, acetone, and pentane. An aqueous solution of the conjugate in water (50 mg/ml) has a pH of about 5. […] A 0.1 weight percent solution of the conjugate in water has a surface tension of about 29 dynes/cm (compare with 41 dynes/cm for a 0.1 weight percent aqueous solution of vitamin E succinate polyethylene glycol, TPGS).

surface tension: 41 dynes/cm
Substance: vitamin E succinate polyethylene glycol [TPGS]
